# Measurements published in patent US6506936B1, “N-substituted arylsulfonylamino hydroxamic acids useful as inhibitors of c-proteinase and for treating or preventing disorders related to unregulated collagen production” (FibroGen, Inc., priority 1999, dated 2003).
# Protein sequences, listed by entry. Tags and fused reporters are not part of them. Residues count along the entry.
# UniProt P13497, 121-986 limits assumed: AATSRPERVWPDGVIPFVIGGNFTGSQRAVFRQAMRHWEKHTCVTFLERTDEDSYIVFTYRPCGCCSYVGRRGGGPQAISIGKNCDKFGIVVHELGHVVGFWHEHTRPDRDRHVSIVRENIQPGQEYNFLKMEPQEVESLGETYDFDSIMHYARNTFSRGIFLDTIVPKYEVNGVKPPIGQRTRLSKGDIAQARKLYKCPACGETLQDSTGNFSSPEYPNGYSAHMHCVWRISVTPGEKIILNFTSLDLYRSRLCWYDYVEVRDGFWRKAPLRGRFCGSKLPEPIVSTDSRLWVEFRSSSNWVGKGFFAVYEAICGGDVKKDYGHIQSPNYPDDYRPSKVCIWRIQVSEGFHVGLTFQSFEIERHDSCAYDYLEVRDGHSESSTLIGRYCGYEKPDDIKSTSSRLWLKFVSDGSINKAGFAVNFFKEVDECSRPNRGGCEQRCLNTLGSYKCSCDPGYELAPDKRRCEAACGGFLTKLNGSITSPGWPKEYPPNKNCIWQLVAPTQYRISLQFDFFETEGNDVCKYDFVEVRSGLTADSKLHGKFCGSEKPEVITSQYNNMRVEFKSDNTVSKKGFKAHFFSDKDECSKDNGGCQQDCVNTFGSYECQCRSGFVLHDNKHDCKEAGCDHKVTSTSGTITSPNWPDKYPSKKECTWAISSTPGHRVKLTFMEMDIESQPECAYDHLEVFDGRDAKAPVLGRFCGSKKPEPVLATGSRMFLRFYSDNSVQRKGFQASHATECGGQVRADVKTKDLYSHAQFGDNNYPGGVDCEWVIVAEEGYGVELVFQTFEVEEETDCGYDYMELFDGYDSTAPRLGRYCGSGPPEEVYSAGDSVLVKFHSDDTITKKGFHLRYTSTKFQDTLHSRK
# Target: recombinant human C-proteinase (Homo sapiens, UniProt P13497)
# Experiment: C-proteinase IC50 assay with fluorogenic peptide
# Type: biochemical
# Conditions: read-out: IC50 (μM) Of Various C-Proteinase Inhibitors, 50 μM fluorogenic peptide, 4 hours at 37° C.
row,Compound,IC50 [µM]
1,COc1ccc(CCN(CCC(=O)NO)S(=O)(=O)c2ccc(C(=O)NO)s2)cc1,4.08
2,O=C(CCN(Cc1ccc2c(c1)OCO2)S(=O)(=O)c1ccc(OC(F)(F)F)cc1)NO,2.85
3,O=C(CCN(CCc1cccs1)S(=O)(=O)c1cccc(C(=O)O)c1)NO,0.75
4,COc1ccc(S(=O)(=O)N(CCC(=O)NO)CCc2ccc(OC)c(OC)c2)cc1,14.5
5,COc1ccc(S(=O)(=O)N(CCC(=O)NO)CC2CCCO2)cc1 (centres unmarked),> 10
6,COc1ccc(S(=O)(=O)N(CCC(=O)NO)CCc2cccs2)cc1,5.7
7,NC(=NO)c1ccccc1S(=O)(=O)N(CCC(=O)NO)Cc1ccc2c(c1)OCO2,19.1
8,O=C(CCN(CCc1cccs1)S(=O)(=O)c1ccc(OC(F)(F)F)cc1)NO,8.88
9,Cn1cnc(S(=O)(=O)N(CCC(=O)NO)CCc2cccs2)c1,13.7
10,COc1ccc(S(=O)(=O)N(CCC(=O)NO)CCc2cccs2)cc1OC,3.85
11,COc1ccc(N(CC(=O)NO)S(=O)(=O)c2ccc(OC)cc2)cc1,72.8
12,O=C(CCN(Cc1ccc2c(c1)OCO2)S(=O)(=O)Cc1ccccc1)NO,1.17
13,Cn1cnc(S(=O)(=O)N(CCC(=O)NO)Cc2ccc3c(c2)OCO3)c1,12.4
14,CS(=O)(=O)c1ccccc1S(=O)(=O)N(CCC(=O)NO)CCc1cccs1,17.5
15,O=C(CCN(CCc1cccs1)S(=O)(=O)c1c(Cl)nc2sccn12)NO,2.61
16,O=C(CCN(Cc1ccc2c(c1)OCO2)S(=O)(=O)c1c(Cl)nc2sccn12)NO,0.59
17,O=C(CCN(Cc1ccc2c(c1)OCO2)S(=O)(=O)c1ccc(C(F)(F)F)cc1)NO,2.6
18,NC(=NO)c1ccccc1S(=O)(=O)N(CCC(=O)NO)CCc1cccs1,12.9

row,Compound,IC50 [µM]
1,O=C(CCN(Cc1ccc2c(c1)OCO2)S(=O)(=O)c1ccc(C(=O)O)cc1)NO,0.87
2,COC(=O)c1ccccc1S(=O)(=O)N(CCC(=O)NO)CCc1ccc(OC)cc1,2.42
3,N#Cc1c(Cl)cccc1Oc1ccc(S(=O)(=O)N(CCC(=O)NO)CCc2cccs2)cc1,5.37
4,N#Cc1c(Cl)cccc1Oc1ccc(S(=O)(=O)N(CCC(=O)NO)Cc2ccc3c(c2)OCO3)cc1,6.01
5,COC(=O)c1ccccc1S(=O)(=O)N(CCC(=O)NO)Cc1ccc2c(c1)OCO2,9.07
6,COc1ccc(S(=O)(=O)N(CCC(=O)NO)C2CCN(Cc3ccccc3)CC2)cc1,> 10
7,COc1ccc(S(=O)(=O)N(CC(=O)NO)c2ccccc2)cc1,39
8,COc1ccc(CCN(CCC(=O)NO)S(=O)(=O)c2ccccc2C(N)=NO)cc1,7.12
9,COc1ccc(S(=O)(=O)N(CCCC(=O)NO)c2ccccc2)cc1,29
10,COC(=O)c1ccccc1S(=O)(=O)N(CCC(=O)NO)CCc1cccs1,15.4
11,COc1ccc(CCN(CCC(=O)NO)S(=O)(=O)c2ccccc2S(C)(=O)=O)cc1,9.07
12,O=C(CCN(CCc1cccs1)S(=O)(=O)c1cccc2nsnc12)NO,3
13,CS(=O)(=O)c1ccccc1S(=O)(=O)N(CCC(=O)NO)Cc1ccc2c(c1)OCO2,8.39
14,O=C(CCN(Cc1ccc2c(c1)OCO2)S(=O)(=O)c1cccc(C(=O)O)c1)NO,0.35
15,O=C(CCN(CCc1cccs1)S(=O)(=O)c1ccc(C(F)(F)F)cc1)NO,8.36
16,COc1ccc(S(=O)(=O)N(CCCC(=O)NO)Cc2ccccc2)cc1,10
17,O=C(CCN(CCc1cccs1)S(=O)(=O)c1ccc(C(=O)O)cc1)NO,0.58
